Binding of CDR-mutated scFvs to a peptide of the spike HR2 region

Target peptide (SARS-CoV-2 spike, HR2 region): PDVDLGDISGINAS

Ab-14 is the parent antibody, in scFv form: VH, then a (GGGGS)3 linker, then VL. The light chain is unchanged in all variants.
VH: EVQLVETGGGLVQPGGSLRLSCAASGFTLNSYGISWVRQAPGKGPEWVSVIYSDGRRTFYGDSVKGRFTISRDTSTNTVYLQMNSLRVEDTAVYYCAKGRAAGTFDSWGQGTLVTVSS
VL: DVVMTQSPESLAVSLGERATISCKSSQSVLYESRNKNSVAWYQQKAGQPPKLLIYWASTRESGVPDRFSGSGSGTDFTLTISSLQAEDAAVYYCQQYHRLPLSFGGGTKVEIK

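This is the validation round: designs drawn from the data on random variants, tested in the same kind of assay. Group labels follow the data file (Ctrl: baseline library sampled from a position-specific scoring matrix, with some repeated check sequences; Rand: our label for a block that the file lists under HC and that is probably the random mutants of the ten best first-round binders; En: ensemble of fine-tuned language models; GP: Gaussian process model; GPLM: also part of the Gaussian process libraries; HC: hill climbing; Gen: genetic algorithm; Gibbs: Gibbs sampling; a sequence that several methods proposed may carry one label only). The scFvs were displayed on barcoded MATa yeast, the peptide on MATalpha yeast. After mating in shaken culture at 30 °C for 16 h, diploids were selected and their barcode pairs sequenced. Each replicate has its own calibration line, from reference interactions of the BCL2 family. The assay was run in six technical replicates.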

Variants are written as CDR1, CDR2 and CDR3 of the heavy chain (limits as in the source). Parent: GFTLNSYGIS, VIYSDGRRTFYGDSVK, GRAAGTFDS.
Numbers give log10(Kd / nM), so 0 is 1 nM and 3 is 1 µM. Smaller is tighter.
Averages over replicates are reported, and they cover detected replicates only.
"nd" means that the variant was in the library but no mating with the target was seen in any replicate; the authors take this as a sign of poor binding, and no number exists.

CDR-H1	CDR-H2	CDR-H3	group	mean log10 Kd (nM)	replicates with signal
GFSLNSYGIS	VIYSDGRRTFYADSVK	GVEAGTFDS	GPLM_Gibbs	2.17	1/6
GFTLNSYGIS	VIYSDGRRTFYLDSVK	GRAAGTFES	Ctrl	nd	0/6
GFDLEEMGIS	VIYADGIRTAVSNDVK	GNVAGTGDV	En_Gibbs	1.70	1/6
GFDLNEYGIS	VIYADGRRTQYIDSVK	GNVAGTFDI	En_HC	-0.43	5/6
GFNLNEYGIS	VIYADGMRTFYTDSVK	GETAGTFDA	En_HC	-0.55	6/6
GFDLNEYGIS	VIYADGQRTYYADSVK	GQNAGTFDV	En_Gen	-0.12	6/6
GFTLDSYGIS	VIYSDGRRTAYHDSVK	GRAAHLFDS	Ctrl	nd	0/6
DFTLNEYGIS	VIYSDGRRTFYGDSVK	GRAAVTFDM	GP_HC	nd	0/6
GFTLNSYGIQ	VIYSDGRRTFYGDSVK	GRAAGLFDL	Ctrl	nd	0/6
YFTLNEYGIS	VIYSDGRRTFYGDSVK	GRTAGTFDS	GPLM_Gen	0.93	2/6
WFTLNEYGIS	VIYSDGRRTFYGDSVK	GRAAVTFDQ	GPLM_HC	nd	0/6
GFDLNSYGIS	VIYSDGRRTFYGDSVK	GREAGTFDE	GP_Gen	0.20	6/6
GFNLNSYGIS	VIYSDGRRTFYADAVK	GQAAGTFDS	GPLM_Gen	2.32	6/6
GFTLESYGIS	VIYSDGRRTFYGDSVK	GRAAGTFLS	Ctrl	nd	0/6
GFDLNEYGIS	VIYADGRRTFYADSVK	GQLAGTFTV	En_HC	-0.46	6/6
GFDLNSYGIS	VIYSDGKRTFYGDSVK	GSAAGTFDS	GPLM_Gen	0.17	6/6
RFTLNSYGIS	VIYSDGRRTFYADSVK	GRPAGTFCS	Ctrl	nd	0/6
GFTLNSYGIS	VIYSDGRRTFYGDDVK	GREAGTFDT	GPLM_Gen	0.51	1/6
GFHLNSYGIS	VIYSDGMRTFYGDSVK	GMAAGTFDS	Ctrl	nd	0/6
GFDLNEYGIS	VIYADGRRTAYADSVK	GGNAGTFDI	En_Gen	-0.06	6/6
GFTLNSYGIS	VIYSDGLRTFYGDSVK	GQEAGTFDT	GP_Gibbs	1.49	6/6
GFTLNSYGIS	VIYSDGRRTFYDDSVK	GQEAGTFDT	GP_HC	0.00	6/6
GFDLNSYGIS	VIYSDGRRTFYGDSVK	GRQAGTFDN	GPLM_Gibbs	0.72	5/6
GFAINKYGIS	VIYADGRRTFYGDSVK	WRAAGTFDL	Ctrl	nd	0/6
GFDLNEYGIS	VIYADGQRTAYSDSVK	GEVAGTFDL	En_Gen	-0.52	6/6
GFDLNEYGIS	VIYADGQRTVYADSVK	GENAGTFDI	En_Gen	-0.13	6/6
GFDLNSYGIS	VIYSDGRRTFYIDSVK	GNAAGTFDA	GP_Gen	-0.21	6/6
GFDLNSYGIS	VIYSDGRRTFYQDSVK	GRAAVTFDV	GP_HC	nd	0/6
GFDLDEYGIS	VIYADGMRTAYADDVK	GETAGTFDL	En_Gen	0.61	6/6
GFTLNEYGIS	VIYSDGIRTFYGDSVK	GRQAGTFDS	GPLM_HC	0.41	6/6
GFDLNEYGIS	VIYADGRRTAYADSVK	GNVAGTFDQ	En_Gen	0.21	6/6
GFNLDEYGIS	VIYADGRRTFYQDSVK	GEVAGTFDV	En_HC	-0.77	6/6
GFDLNEYGIS	VIYADGMRTAYADSVK	GETAGTFVQ	En_Gen	-0.24	6/6
GFNLDEYGIS	VIYADGKRTEYSKNVK	GQIDFKLIG	En_Gibbs	nd	0/6
GFTLDSYMIS	VIYSDGRRTFYGDSVK	GRAAGTALS	Rand	nd	0/6
GFTLNSYGIS	VIYSDGRRTYYGDSVK	GRAAGTFVS	Ctrl	nd	0/6
GFDLNEYGVS	VIYADGQRTYYTESVK	GKVGDLLMA	En_Gibbs	nd	0/6
GQDLAEYGIS	VIYADGKRTMYANDVK	GTNDGQGGT	En_Gibbs	nd	0/6
GFDLDEYGIS	VIYADGRRTFYSDSVK	GQAAGTFDQ	En_HC	0.34	6/6
GFTLNEYGIS	VIYLDGRRTFYGDSVK	GRAAVTFDQ	Rand	nd	0/6
GFQLNSYGIS	VIYSDGRRTFYGDSVK	GEAAGTFDD	GP_Gibbs	nd	0/6
GFNLNSYGIS	VIYSDGRRTFYVDDVK	GNAAGTFDS	GPLM_Gibbs	0.08	6/6
GFSLNSYGIS	VIYSDGRRTFYQDNVK	GRTAGTFDS	GP_Gen	0.47	6/6
GFDLDEYGIS	VIYADGRRTAYADSVK	GNNAGTFDM	En_Gen	-0.06	6/6
GFDVNEYGIS	VIYADGSRVAILESVK	GKIAGTFFV	En_Gibbs	nd	0/6
GADLNEYGIS	VIYADGDRKAYQDDVK	GDVGGDFDE	En_Gibbs	nd	0/6
GFTLNSYGIS	VIYADGRRTFYGDSVK	GRHAGTFKI	GP_HC	nd	0/6
GFDLLEYGIS	VIYADGSRVAYINNVK	GKNGAIGSN	En_Gibbs	0.75	6/6
GFDLNEYGIS	VIYADGVRTAYLQNVK	GEVAGFDQY	En_Gibbs	nd	0/6
GFDLNEYGIS	VIYADGRRTFYADSVK	GKIAGTFNV	En_HC	-0.87	6/6
GFNLDEYGIS	VIYADGKRSMYTDKVK	GVVGDFMMD	En_Gibbs	nd	0/6
GFDLEKMGIS	VIYADGSRSAYAQDVK	GGHAGGFHV	En_Gibbs	nd	0/6
GFDLNEYGIS	VIYADGRRTFYSDSVK	GEIAGTFVQ	En_HC	0.35	6/6
GFDIDEYGIS	VIYADGRRTFYADSVK	GNNAGTFDS	En_HC	-0.41	6/6
GFDLNSYGIS	VIYSDGRRTFYLDSVK	GKAAGTFDS	GPLM_Gen	0.79	6/6
GFTLNSYGIS	VIYSDGMRTFYSDSVK	GQTAGTFDS	GP_Gibbs	-0.11	6/6
GFDVDKYGIS	VIYADGRRKAYQNQFK	GGQAGTFVN	En_Gibbs	4.96	1/6
GFTLNSYGIS	VIYSDGIRTFYGDSVK	GRTAGTFDS	GPLM_Gen	1.10	1/6
GFDLNEYGIS	VIYADGVRTFYSDKVK	GNVGGTFDI	En_HC	0.13	6/6
GFSLNSYGIS	VIYSDGRRTFYGDMVK	GEAAGTFDS	GPLM_Gen	0.68	6/6
GFNIQEYGIS	VIYADGKRTAYAEPVK	GEIGGTIDT	En_Gibbs	2.10	2/6
GFDLGEYGIS	VIYADGQRRAYQDAVK	GHSSVDYLA	En_Gibbs	nd	0/6

The opening 8 entries, copied out:

| CDR-H1 | CDR-H2 | CDR-H3 | group | mean log10 Kd (nM) | replicates with signal |
|---|---|---|---|---|---|
| GFSLNSYGIS | VIYSDGRRTFYADSVK | GVEAGTFDS | GPLM_Gibbs | 2.17 | 1/6 |
| GFTLNSYGIS | VIYSDGRRTFYLDSVK | GRAAGTFES | Ctrl | nd | 0/6 |
| GFDLEEMGIS | VIYADGIRTAVSNDVK | GNVAGTGDV | En_Gibbs | 1.70 | 1/6 |
| GFDLNEYGIS | VIYADGRRTQYIDSVK | GNVAGTFDI | En_HC | -0.43 | 5/6 |
| GFNLNEYGIS | VIYADGMRTFYTDSVK | GETAGTFDA | En_HC | -0.55 | 6/6 |
| GFDLNEYGIS | VIYADGQRTYYADSVK | GQNAGTFDV | En_Gen | -0.12 | 6/6 |
| GFTLDSYGIS | VIYSDGRRTAYHDSVK | GRAAHLFDS | Ctrl | nd | 0/6 |
| DFTLNEYGIS | VIYSDGRRTFYGDSVK | GRAAVTFDM | GP_HC | nd | 0/6 |

The authors averaged sequences with at least three values out of six and counted those with two or fewer as poor binders.
Values of this round are not directly comparable with the first-round values of the same sequences.
Nonspecific signal, from three strains lacking the peptide, appeared in 1% of pairings of all heavy chain designs, centred on 2.08 (5% of these signals below 0.84); values are not corrected for it.

Data: MIT Lincoln Laboratory AlphaSeq set, Li et al. 2023, doi:10.1038/s41467-023-39022-2, as distributed in FLAb.